The target of this test is human (hACC2) (Homo sapiens, UniProt O00763). The test can be described thus: In vitro ACC inhibition assay (ADP-Glo), hACC2. Format: biochemical. How it is done: The detailed procedure is as follows. […] 10 μL ADP glo reagent was added. […] 20 μL kinase detection reagent was added.
In general terms: ADP-Glo turns the ADP formed in a reaction into a luminescent signal.

Protein sequences, listed by entry. Tags and fused reporters are not part of them.
UniProt O00763, whole entry: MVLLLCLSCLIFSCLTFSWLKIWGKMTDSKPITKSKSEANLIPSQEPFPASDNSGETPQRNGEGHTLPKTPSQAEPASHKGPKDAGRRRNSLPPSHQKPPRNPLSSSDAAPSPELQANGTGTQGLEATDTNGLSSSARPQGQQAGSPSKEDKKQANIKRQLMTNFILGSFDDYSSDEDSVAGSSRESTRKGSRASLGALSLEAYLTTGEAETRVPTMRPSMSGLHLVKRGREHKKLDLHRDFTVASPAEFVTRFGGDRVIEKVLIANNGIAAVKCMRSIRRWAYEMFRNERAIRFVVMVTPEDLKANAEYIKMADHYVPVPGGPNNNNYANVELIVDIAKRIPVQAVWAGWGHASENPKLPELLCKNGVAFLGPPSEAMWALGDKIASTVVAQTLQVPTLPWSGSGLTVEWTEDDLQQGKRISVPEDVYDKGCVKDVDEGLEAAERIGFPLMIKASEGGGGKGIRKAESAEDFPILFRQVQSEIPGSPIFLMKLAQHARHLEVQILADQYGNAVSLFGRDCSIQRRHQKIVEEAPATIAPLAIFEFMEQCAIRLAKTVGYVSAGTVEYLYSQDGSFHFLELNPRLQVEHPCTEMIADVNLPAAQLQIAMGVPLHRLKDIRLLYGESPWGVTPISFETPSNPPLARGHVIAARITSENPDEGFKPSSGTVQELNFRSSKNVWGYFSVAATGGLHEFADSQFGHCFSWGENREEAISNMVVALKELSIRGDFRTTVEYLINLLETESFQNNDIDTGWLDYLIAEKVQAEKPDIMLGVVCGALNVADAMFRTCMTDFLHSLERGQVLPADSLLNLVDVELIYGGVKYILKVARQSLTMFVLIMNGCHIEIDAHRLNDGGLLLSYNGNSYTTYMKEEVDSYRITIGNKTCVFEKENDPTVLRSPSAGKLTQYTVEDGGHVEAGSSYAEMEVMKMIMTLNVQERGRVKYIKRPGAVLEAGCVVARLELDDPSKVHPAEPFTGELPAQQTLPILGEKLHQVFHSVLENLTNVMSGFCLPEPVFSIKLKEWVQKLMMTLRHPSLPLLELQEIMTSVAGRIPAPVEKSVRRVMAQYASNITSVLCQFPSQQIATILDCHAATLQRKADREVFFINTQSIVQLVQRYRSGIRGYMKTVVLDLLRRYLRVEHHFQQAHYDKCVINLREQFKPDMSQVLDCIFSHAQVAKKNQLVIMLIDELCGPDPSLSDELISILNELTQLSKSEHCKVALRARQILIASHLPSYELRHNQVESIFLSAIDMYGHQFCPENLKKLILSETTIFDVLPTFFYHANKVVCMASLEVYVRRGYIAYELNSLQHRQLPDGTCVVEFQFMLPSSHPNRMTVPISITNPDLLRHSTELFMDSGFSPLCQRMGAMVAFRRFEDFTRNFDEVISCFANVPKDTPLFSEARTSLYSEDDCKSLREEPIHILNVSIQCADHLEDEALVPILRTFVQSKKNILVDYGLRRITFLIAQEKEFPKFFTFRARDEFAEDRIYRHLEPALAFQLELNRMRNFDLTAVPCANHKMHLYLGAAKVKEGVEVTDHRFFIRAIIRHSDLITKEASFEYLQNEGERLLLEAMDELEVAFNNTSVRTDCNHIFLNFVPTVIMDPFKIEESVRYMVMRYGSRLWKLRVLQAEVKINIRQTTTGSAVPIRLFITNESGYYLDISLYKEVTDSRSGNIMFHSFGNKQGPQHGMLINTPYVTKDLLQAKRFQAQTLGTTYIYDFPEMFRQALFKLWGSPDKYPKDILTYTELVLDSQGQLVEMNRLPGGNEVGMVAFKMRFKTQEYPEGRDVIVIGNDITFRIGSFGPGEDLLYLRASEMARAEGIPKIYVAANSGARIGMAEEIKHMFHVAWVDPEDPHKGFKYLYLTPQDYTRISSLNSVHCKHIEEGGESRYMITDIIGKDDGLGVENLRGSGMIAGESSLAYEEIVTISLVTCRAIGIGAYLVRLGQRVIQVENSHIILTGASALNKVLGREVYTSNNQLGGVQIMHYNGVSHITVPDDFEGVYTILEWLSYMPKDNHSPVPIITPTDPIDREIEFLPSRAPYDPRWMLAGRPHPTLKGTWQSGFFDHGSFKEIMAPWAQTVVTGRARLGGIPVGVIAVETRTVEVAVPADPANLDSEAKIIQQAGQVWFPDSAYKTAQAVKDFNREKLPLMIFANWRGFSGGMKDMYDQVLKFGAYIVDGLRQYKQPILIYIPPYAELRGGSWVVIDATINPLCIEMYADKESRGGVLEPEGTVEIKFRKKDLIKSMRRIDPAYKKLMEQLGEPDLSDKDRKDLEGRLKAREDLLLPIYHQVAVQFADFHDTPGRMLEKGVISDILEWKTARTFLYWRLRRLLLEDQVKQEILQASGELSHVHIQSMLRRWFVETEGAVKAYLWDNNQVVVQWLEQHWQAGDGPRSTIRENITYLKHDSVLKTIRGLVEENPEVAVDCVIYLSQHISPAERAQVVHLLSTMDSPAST

The structures appear in SMILES notation. Like-named read-outs stand apart in the source and are kept apart here.

As usually defined, the IC50 is the point on the concentration scale where inhibition reaches its midpoint. Take `COc1ccc(F)cc1[C@@H](Cn1c(=O)n([C@@H](C)C(=O)N(C)C(C)C)c(=O)c2c(C)c(-n3nccn3)sc21)OCCO`: the half-maximal inhibitory concentration (IC50) (read-out: hACC2 (in vitro ACC2 Inhibition Assay, IC50), Table 2a, 5 nM ACC2, 20 μM ATP, 20 μM acetyl-CoA) was more than 0.04 µM and the IC50 (read-out: hACC2 (in vitro ACC2 Inhibition Assay, IC50), Table 2b, additional results, 5 nM ACC2, 20 μM ATP, 20 μM acetyl-CoA) was more than 0.04 µM.
